In the assay the test system is native-A1 receptors. Nature of the assay: Effect of GTPγS on agonist radioligand binding to native-A1.

`Nc1nc2c(ncn2[C@@H]2O[C@H](COP(=O)(O)OP(=O)(O)OP(O)(O)=S)[C@@H](O)[C@H]2O)c(=O)[nH]1` [GTPγS]: the “reduction in number of high affinity agonist (^125 I-ABA) binding sites by GTPγS” value is recorded as “large reduction”.

These data come from patent publication US5854081A, “Stable expression of human A2B adenosine receptors, and assays employing the same” (The University of Patent Foundation, priority 1996, dated 1998).
